{
  "source": "patent US20250345253A1",
  "about": "(priority 2024, published 2025)",
  "origin": "cited, not measured here",
  "key": {"[1]": {"conditions": "20° C.; cited from earlier work"}, "[2]": {"conditions": "cited from earlier work"}},
  "data": [
    {"substance": "Sodium Dichloroisocyanurate Dihydrate", "values": [
      {"measurement": "Solubility (mg/L H2O)", "setting": "[1]", "value": "28,000 b mg/L H2O"},
      {"measurement": "pH, 1% solution unless otherwise noted", "setting": "[2]", "value": 6.0, "unit": "b"}
    ]}
  ]
}
